Data from EP4821554A2, “COMPOSITIONS AND METHODS FOR THE TREATMENT OF DEPRESSION” (dated 2026).

Experiments:
[1] = test system: subjects with MDD who have had an inadequate response to SSRI/SNRI treatment; assay: HAM-A6 total score (core symptoms of anxiety), Example 1 clinical study; conditions: change from treatment baseline at Treatment Week 6
[2] = test system: subjects with MDD who have had an inadequate response to SSRI/SNRI treatment; assay: Treatment-emergent adverse events, full safety analysis set, Example 1
[3] = test system: subjects with MDD who have had an inadequate response to SSRI/SNRI treatment; assay: MADRS total score, adjunctive aticaprant vs placebo, Example 1 clinical study; conditions: MADRS least squares mean change from baseline, fITT (Fig. 7B)
[4] = Table 23, Treatment Period, Full Safety Analysis Set, aticaprant 10mg (N=85)

In the case of `Cc1cc(C)cc([C@@H]2CCCN2Cc2ccc(Oc3ccc(C(N)=O)cc3F)cc2)c1`, the “HAMA6 score improvement vs. placebo” value [1] is reported as “greater improvement”, the “Subjects with 1 or more serious TEAE” value [2, 4] is reported as 0 n (%) and the “Subjects with TEAE leading to death” value [2, 4] is reported as 0 n (%). The “subjects who discontinued during the treatment period due to treatment-emergent adverse events” value ([2]; due to diarrhea, nausea, vomiting and headache) was 1 subject, the “patients experienced acute cholecystitis” value ([2]; treatment period) was 0 patients and the “onset of effect: significant treatment effect favoring aticaprant seen as early as” value [3] was 3 week.
